B1: 208-6502: ADC of Example 208 (Intermediate F104) with anti-B7H3 antibody 6502 (conjugate)
heavy: EVQLLESGGGLVQPGGSLRLSCAASGFTFSTYGMHWVRQAPGKGLEWVSAISGSGGSTYYADSVKGRFTISRDNSKNTLYLQMNSLRAEDTAVYYCTRGYYYYGMDVWGQGTLVTVSSASTKGPSVFPLAPSSKSTSGGTAALGCLVKDYFPEPVTVSWNSGALTSGVHTFPAVLQSSGLYSLSSVVTVPSSSLGTQTYICNVNHKPSNTKVDKKV[left out - human IgG1 Fc]
light: QSVLTQPPSASGTPGQRVTISCSGGSSNIGSNPVNWYQQLPGTAPKLLIYGNSKRPSGVPDRFSGSKSGTSASLAISGLRSEDEADYYCQSYDSSLSGWVFGGGTKLTVLGQPKAAPSVTLFPPSSEELQANKATLVCLISDFYPGAVTVAWKADSSPVKAGVETTTPSKQSNNKYAASSYLSLTPEQWKSHRSYSCQVTHEGSTVEKTVAPTECS
B2: 208-6499: ADC of Example 208 (Intermediate F104) with anti-B7H3 antibody 6499 (conjugate)
heavy: EVQLLESGGGLVQPGGSLRLSCAASGFTFRDFYMNWIRQAPGKGLEWVSSISASGKYTYYADSVKGRFTISRDNSKNTLYLQMNSLRAEDTAVYYCAREWGYCTNDVCRNWFDPWGQGTLVTVSSASTKGPSVFPLAPSSKSTSGGTAALGCLVKDYFPEPVTVSWNSGALTSGVHTFPAVLQSSGLYSLSSVVTVPSSSLGTQTYICNVNHKPSNTKVDKKV[left out - human IgG1 Fc]
light: QSVLTQPPSASGTPGQRVTISCSGGYSNVGGNNVNWYQQLPGTAPKLLIYGNSNRPSGVPDRFSGSKSGTSASLAISGLRSEDEADYYCQSYDSSLSGSVFGGGTKLTVLGQPKAAPSVTLFPPSSEELQANKATLVCLISDFYPGAVTVAWKADSSPVKAGVETTTPSKQSNNKYAASSYLSLTPEQWKSHRSYSCQVTHEGSTVEKTVAPTECS
B3: 194-6502 (conjugate)
heavy: EVQLLESGGGLVQPGGSLRLSCAASGFTFSTYGMHWVRQAPGKGLEWVSAISGSGGSTYYADSVKGRFTISRDNSKNTLYLQMNSLRAEDTAVYYCTRGYYYYGMDVWGQGTLVTVSSASTKGPSVFPLAPSSKSTSGGTAALGCLVKDYFPEPVTVSWNSGALTSGVHTFPAVLQSSGLYSLSSVVTVPSSSLGTQTYICNVNHKPSNTKVDKKV[left out - human IgG1 Fc]
light: QSVLTQPPSASGTPGQRVTISCSGGSSNIGSNPVNWYQQLPGTAPKLLIYGNSKRPSGVPDRFSGSKSGTSASLAISGLRSEDEADYYCQSYDSSLSGWVFGGGTKLTVLGQPKAAPSVTLFPPSSEELQANKATLVCLISDFYPGAVTVAWKADSSPVKAGVETTTPSKQSNNKYAASSYLSLTPEQWKSHRSYSCQVTHEGSTVEKTVAPTECS
B4: 173-6515: ADC of Example 173 (Intermediate F173) with anti-B7H3 antibody 6515 (conjugate)
heavy: EVQLLESGGGLVQPGGSLRLSCAASGFTFSSYGMHWVRQVPGKGLEWVSAISGSGGTTYYADSVKGRFTISRDNSKNTLYLQMNSLRAEDTAVYYCARGGYHFLFDYWGQGTLVTVSSASTKGPSVFPLAPSSKSTSGGTAALGCLVKDYFPEPVTVSWNSGALTSGVHTFPAVLQSSGLYSLSSVVTVPSSSLGTQTYICNVNHKPSNTKVDKKV[left out - human IgG1 Fc]
light: QSVLTQPPSASGTPGQRVTISCSGSSSNIGSNTVNWYQQLPGTAPKLLIYRNDQRLLGVPDRFSGSKSGTSASLAISGLRSEDEADYYCQSYDSSLSGWVFGGGTKLTVLGQPKAAPSVTLFPPSSEELQANKATLVCLISDFYPGAVTVAWKADSSPVKAGVETTTPSKQSNNKYAASSYLSLTPEQWKSHRSYSCQVTHEGSTVEKTVAPTECS
B5: 208-6515: ADC of Example 208 (Intermediate F104) with anti-B7H3 antibody 6515 (conjugate)
heavy: EVQLLESGGGLVQPGGSLRLSCAASGFTFSSYGMHWVRQVPGKGLEWVSAISGSGGTTYYADSVKGRFTISRDNSKNTLYLQMNSLRAEDTAVYYCARGGYHFLFDYWGQGTLVTVSSASTKGPSVFPLAPSSKSTSGGTAALGCLVKDYFPEPVTVSWNSGALTSGVHTFPAVLQSSGLYSLSSVVTVPSSSLGTQTYICNVNHKPSNTKVDKKV[left out - human IgG1 Fc]
light: QSVLTQPPSASGTPGQRVTISCSGSSSNIGSNTVNWYQQLPGTAPKLLIYRNDQRLLGVPDRFSGSKSGTSASLAISGLRSEDEADYYCQSYDSSLSGWVFGGGTKLTVLGQPKAAPSVTLFPPSSEELQANKATLVCLISDFYPGAVTVAWKADSSPVKAGVETTTPSKQSNNKYAASSYLSLTPEQWKSHRSYSCQVTHEGSTVEKTVAPTECS
B6: 257-6499: ADC of Example 257 (Intermediate F257) with anti-B7H3 antibody 6499 (conjugate)
heavy: EVQLLESGGGLVQPGGSLRLSCAASGFTFRDFYMNWIRQAPGKGLEWVSSISASGKYTYYADSVKGRFTISRDNSKNTLYLQMNSLRAEDTAVYYCAREWGYCTNDVCRNWFDPWGQGTLVTVSSASTKGPSVFPLAPSSKSTSGGTAALGCLVKDYFPEPVTVSWNSGALTSGVHTFPAVLQSSGLYSLSSVVTVPSSSLGTQTYICNVNHKPSNTKVDKKV[left out - human IgG1 Fc]
light: QSVLTQPPSASGTPGQRVTISCSGGYSNVGGNNVNWYQQLPGTAPKLLIYGNSNRPSGVPDRFSGSKSGTSASLAISGLRSEDEADYYCQSYDSSLSGSVFGGGTKLTVLGQPKAAPSVTLFPPSSEELQANKATLVCLISDFYPGAVTVAWKADSSPVKAGVETTTPSKQSNNKYAASSYLSLTPEQWKSHRSYSCQVTHEGSTVEKTVAPTECS

What follows are molecules tested on Raji: human Burkitt's lymphoma cells, B7H3-negative (assay: CTG cytotoxicity assay of anti-B7H3 ADCs, Raji). Conditions: 72 h incubation.
Type: cell-based
Experimental: The analysis of the cytotoxic effects of the anti-B7H3 ADCs was carried out with various cell lines:
Raji: human Burkitt's lymphoma cells, DMSZ-ACC-319, standard medium: RPMI 1640; (Biochrom; # FG 1215, with stable glutamine)+10% FCS (Biochrom; # S0415), B7H3-negative.
The cells were cultivated by the standard method as stated by the American Tissue Culture Collection (ATCC) for the cell lines in question.
The cells were cultivated according to the standard method using the growth media listed under C-1. The test was carried out by detaching the cells with a solution of trypsin (0.05%) and EDTA (0.02%) in PBS (Biochrom AG #L2143), pelleting, resuspending in culture medium, counting and sowing into a 96-well culture plate with white bottom (Costar #3610) (75 μl/well, the following cell numbers per well: NCI-H292: 2500 cells/well, BxPC3 2500 cells/well) and incubating in an incubator at 37° C. in 5% carbon dioxide. After 24 h, the antibody drug conjugates in 25 μl of culture medium (four-fold concentrated) were added to the cells such that a final concentration of antibody drug conjugates of 3×10^−7 M to 3×10^−11 M on the cells was reached (in triplicate). The cells were then incubated in an incubator at 37° C., and 5% carbon dioxide. In a parallel plate, the cell vitality was determined at the start of the drug treatment (day 0) using the Cell Titer Glow (CTG) Luminescent Cell Viability Assay (Promega #G7573 and #G7571). To this end, 100 μl of the […] were added per cell batch, the plates were then covered with aluminium foil, shaken on the plate shaker at 180 rpm for 2 minutes, allowed to stand on the laboratory bench for 8 minutes and then measured using a luminometer (Victor X2, Perkin Elmer). The substrate detects the ATP content in the living cells, generating a luminescence signal of which the height is directly proportional to the vitality of the cells. After 72 h of incubation with the antibody drug conjugates, in these cells, too, the vitality was determines using the Cell Titer Glow Luminescent Cell Viability Assay as described above. From the measured data, the IC^50 of the growth inhibition in comparison to day 0 was calculated using the DRC (dose response curve) analysis spreadsheet with a 4-parameter fit. The DRC analysis spreadsheet is a Biobook Spreadsheet developed by Bayer Pharma AG and Bayer Business Services on the IDBS E-WorkBook Suite platform (1DBS: ID Business Solutions Ltd., Guildford, UK).
Molecule B1 has an IC50 of 124 nM. For B2, the IC50 was > 300 nM. In the case of B3, the IC50 is reported as > 300 nM. In the case of B4, the IC50 is reported as 123 nM. B5 was tested, and the IC50 was 114 nM. B6 showed an IC50 of 72.8 nM.
